{"sequences": {"note": "Chains of the proteins cited; added tags and fusions are not shown. Lines headed by an entry give the natural chain unless they say otherwise; changes in a name come on top.", "UniProt Q12809": "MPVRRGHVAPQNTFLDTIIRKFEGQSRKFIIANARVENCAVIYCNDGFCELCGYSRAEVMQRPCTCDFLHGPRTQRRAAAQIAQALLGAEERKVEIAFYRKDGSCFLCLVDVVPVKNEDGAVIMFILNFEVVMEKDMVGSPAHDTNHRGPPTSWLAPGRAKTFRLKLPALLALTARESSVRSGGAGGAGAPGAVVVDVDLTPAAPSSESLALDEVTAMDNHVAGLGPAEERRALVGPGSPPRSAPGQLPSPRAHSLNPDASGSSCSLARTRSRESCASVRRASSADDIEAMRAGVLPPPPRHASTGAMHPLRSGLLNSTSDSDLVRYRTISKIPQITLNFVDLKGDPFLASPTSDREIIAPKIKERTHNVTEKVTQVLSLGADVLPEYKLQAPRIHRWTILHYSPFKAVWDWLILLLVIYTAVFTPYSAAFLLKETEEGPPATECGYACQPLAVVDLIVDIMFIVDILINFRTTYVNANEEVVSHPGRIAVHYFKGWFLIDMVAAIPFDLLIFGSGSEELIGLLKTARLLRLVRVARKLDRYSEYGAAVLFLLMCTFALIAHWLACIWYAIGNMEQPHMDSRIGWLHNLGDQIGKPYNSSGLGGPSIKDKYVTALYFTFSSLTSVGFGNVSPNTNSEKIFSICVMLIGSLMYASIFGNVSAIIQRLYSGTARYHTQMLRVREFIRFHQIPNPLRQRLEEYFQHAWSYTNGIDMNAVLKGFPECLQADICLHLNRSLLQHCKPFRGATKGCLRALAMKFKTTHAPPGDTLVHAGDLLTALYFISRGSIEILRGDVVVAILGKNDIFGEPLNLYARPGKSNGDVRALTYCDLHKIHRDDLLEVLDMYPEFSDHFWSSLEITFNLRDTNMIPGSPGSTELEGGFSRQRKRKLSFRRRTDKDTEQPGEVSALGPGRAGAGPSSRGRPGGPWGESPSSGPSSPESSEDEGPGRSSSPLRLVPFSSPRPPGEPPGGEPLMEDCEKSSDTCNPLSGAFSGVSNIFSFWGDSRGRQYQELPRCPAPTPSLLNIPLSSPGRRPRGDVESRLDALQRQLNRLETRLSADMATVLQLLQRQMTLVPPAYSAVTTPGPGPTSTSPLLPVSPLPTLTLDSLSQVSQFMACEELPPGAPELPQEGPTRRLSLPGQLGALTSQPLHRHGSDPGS", "UniProt P51685, whole entry": "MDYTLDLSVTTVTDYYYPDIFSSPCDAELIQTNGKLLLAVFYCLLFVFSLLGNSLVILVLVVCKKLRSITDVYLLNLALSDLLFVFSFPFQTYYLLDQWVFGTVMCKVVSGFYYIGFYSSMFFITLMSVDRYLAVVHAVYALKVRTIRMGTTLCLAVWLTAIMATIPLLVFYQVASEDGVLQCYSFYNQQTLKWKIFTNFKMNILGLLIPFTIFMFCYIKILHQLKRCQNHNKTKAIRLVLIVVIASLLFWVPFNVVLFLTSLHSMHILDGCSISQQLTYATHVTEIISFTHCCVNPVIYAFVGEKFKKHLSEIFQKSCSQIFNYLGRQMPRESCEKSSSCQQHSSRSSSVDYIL"}, "source": "ChEMBL document CHEMBL1154736", "about": "“Increasing selectivity of CC chemokine receptor 8 antagonists by engineering nondesolvation related interactions with the intended and off-target binding sites” (J Med Chem, 2009)", "key": {"[1]": {"target": "T1, Voltage-gated inwardly rectifying potassium channel KCNH2 (Homo sapiens, UniProt Q12809)", "assay": "Displacement of [3H]dofetilide from human recombinant ERG expressed in HEK293 cells by patch clamp method"}, "[2]": {"target": "T1, Voltage-gated inwardly rectifying potassium channel KCNH2", "assay": "Inhibition of wild type human ERG expressed in CHOK1 cells by whole-cell plate-based electrophysiology"}, "[3]": {"target": "C-C chemokine receptor type 8 (Homo sapiens, UniProt P51685)", "assay": "Antagonist activity at human CCR8", "format": "functional"}}, "data": [{"smiles": "CC1Cc2cccc(CN3CCC4(CC3)CCN(C(=O)c3ccncc3)CC4)c2O1", "note": "(stereo not given)", "values": [{"measurement": "IC50", "setting": "[1]", "result": 8.13, "unit": "µM"}, {"measurement": "IC50", "setting": "[2]", "result": 20.9, "unit": "µM"}, {"measurement": "IC50", "setting": "[3]", "result": 0.129, "unit": "µM"}]}, {"smiles": "CC1(C)C=Cc2cccc(CN3CCC4(CC3)CCN(C(=O)c3ccnc(N)c3)CC4)c2O1", "values": [{"measurement": "IC50", "setting": "[2]", "result": 38, "unit": "µM"}]}, {"smiles": "O=C(c1ccncc1)N1CCC2(CCN(Cc3cccc(Oc4ccccc4)c3)CC2)CC1", "values": [{"measurement": "IC50", "setting": "[3]", "result": 0.0174, "unit": "µM"}]}]}
